Here are results for 37 molecules from PubChem BioAssay (NCI).

The list shows a part of the results, in another mix than the full data. Some compounds were tested as several samples or in several runs, with calls that do not always agree. Active and inactive are the calls of the source. Cut-off read from the data, not from the text of the source: active = growth inhibition above about 70%; inactive = the rest.

One assay is described as follows: NCI Yeast Anticancer Drug Screen. Data for the cln2 rad14 strain (AID 165).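 Note: 0% = growth equal to vehicle treated cultures.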 The settings on record: S. cerevisiae cln2 rad14 strain, at 50.0 µM, active compounds read high.
Regarding `O=C(O)c1ccccc1[As](=O)(O)O`, the growth inhibition was inactive: 5.8%.

For `CC(=O)NC1C(O)OC(CS[As](C)C)C(O)C1O` (centres undefined), the growth inhibition was inactive: -8.9%.

In the case of `CCN(CCCl)Cc1ccc2ccccc2c1`, the growth inhibition is inactive: -16.6%.

Consider `n1[nH]nc2c1c1n[nH]nc1c1n[nH]nc21`, for which the growth inhibition was inactive: -12.3%.

As to `[N-]=[N+]=NC/C(N)=N/O`, the growth inhibition is inactive: 3.1%.

For the molecule `C[N+]1(CCCC[N+]2(C)CCCCCC2)CCCCCC1`, the growth inhibition was inactive: -22.9%.

As to `CCOP(=O)(OCC)OP1OCC(C)(C)CO1`, the growth inhibition was inactive: -1.8%.

On to `O=P1(N(CCCl)CCCl)NCCC(C(F)(F)F)O1` (centres undefined), for which the growth inhibition was inactive: 1%.

As for `[N-]=[N+]=NCC(O)CN=[N+]=[N-]` (centres undefined), the growth inhibition was inactive: 5.8%.

Turning to `COP(OC)c1ccc(C)cc1`, the growth inhibition was inactive: 4.3%.

Regarding `NCCc1ccc(N(CCCl)CCCl)cc1`, the growth inhibition is inactive: -2.35%.

For `O=C(O)CCc1ccc(Oc2cc([N+](=O)[O-])c([N+](=O)[O-])c([N+](=O)[O-])c2)cc1`, the growth inhibition is inactive: -10.6%.

Take `CN(C)[P+](On1nnc2ccccc21)(N(C)C)N(C)C`: the growth inhibition was inactive: 12.3%.

For the molecule `O=C(N=Nc1ccc([N+](=O)[O-])cc1[N+](=O)[O-])NNc1ccc([N+](=O)[O-])cc1[N+](=O)[O-]`, the growth inhibition was inactive: 30.9%.

Take `N=P(c1ccccc1)(c1ccccc1)c1ccccc1`: the growth inhibition was inactive: -7.55%.

As to `ClP(Cc1ccccc1)Cc1ccccc1`, the growth inhibition was inactive: 1.65%.

With `Cn1c(COC(=O)N(CCCl)CCCl)cnc1S(C)=O` (centres undefined), the growth inhibition was inactive: -4.15%.

As for `CCOC(=O)NC(c1ccccc1[N+](=O)[O-])P(=O)(O)Nc1ncn[nH]1` (centres undefined), the growth inhibition is inactive: 8.9%.

Regarding `O=P(OCC(O)CO)(Oc1ccccc1)N(CCCl)CCCl` (centres undefined), the growth inhibition was inactive: -35.5%.

On to `CCOP1(=O)N=C(NC2=NC(C(F)(F)F)(C(F)(F)F)N=C(C(F)(F)F)O2)N(C)C1(C)C` (centres undefined), for which the growth inhibition was inactive: 19.4%.

On to `[N-]=[N+]=Nc1ccc([As](=O)(O)O)cc1`, for which the growth inhibition is inactive: -9.8%.

For `C[Si](C)(C)CCCNCCCl`, the growth inhibition was inactive: 30.6%.

As to `CC(COC(=O)c1cc([N+](=O)[O-])cc([N+](=O)[O-])c1)OC(=O)c1cc([N+](=O)[O-])cc([N+](=O)[O-])c1` (centres undefined), the growth inhibition is inactive: -50%.

With `O=P(NO)(OCc1ccccc1)N(CCCl)CCCl` (centres undefined), the growth inhibition is inactive: -9.8%.

Take `CC1CC[P+](c2ccccc2)(c2ccccc2)Cc2ccccc21` (centres undefined): the growth inhibition is inactive: -3.65%.

For `BrP(c1ccccc1)c1ccccc1`, the growth inhibition was inactive: 14.2%.

As to `CC(C)(C)C1CC(C(F)(F)F)(C(F)(F)F)OP(=O)(Cl)O1` (centres undefined), the growth inhibition is inactive: 4.8%.

Turning to `Cc1cccc(N[P@]2(Cl)=NP(Cl)(Cl)=N[P@@](Cl)(Nc3cccc(C)c3)=NP(Cl)(Cl)=N2)c1`, the growth inhibition was inactive: -7.45%.

As to `C/C(=N/Nc1ccc([N+](=O)[O-])cc1[N+](=O)[O-])c1ccc([N+](=O)[O-])cc1`, the growth inhibition was inactive: 7.1%.

Take `Nc1ccc(P(=O)(Nc2ccccn2)Nc2ccccn2)cc1`: the growth inhibition was inactive: -19.6%.

Take `CC(/C=C/C(C)=N\Nc1ccc([N+](=O)[O-])cc1[N+](=O)[O-])=N/Nc1ccc([N+](=O)[O-])cc1[N+](=O)[O-]`: the growth inhibition was inactive: 5%.

In the case of `CN1C(=O)N(C)P(=O)(c2ccccc2)P1c1ccccc1` (centres undefined), the growth inhibition is inactive: 4.6%.

Consider `N/C(=N\N=C\c1ccc([N+](=O)[O-])o1)N[N+](=O)[O-]`, for which the growth inhibition was inactive: 16.5%.

With `CCCCCCCCCCCCCCCC(=O)OCC(COP(=O)(Oc1ccccc1)N(CCCl)CCCl)OC(=O)CCCCCCCCCCCCCCC` (centres undefined), the growth inhibition is inactive: -5.65%.

`[N-]=[N+]=NC(N)=O`: the growth inhibition is inactive: -55.9%.

With `CCCCOc1ccc(N(CCCl)CCCl)cc1`, the growth inhibition is inactive: 7.9%.

Turning to `ClC1=C(Cl)C2(Cl)C3C(SC4C3C3(Cl)C(Cl)=C(Cl)C4(Cl)C3(Cl)Cl)C1(Cl)C2(Cl)Cl` (centres undefined), the growth inhibition was inactive: -17.4%.

The next assay in a line: NCI Yeast Anticancer Drug Screen. Data for the bub3 strain (AID 167). To be noted: S. cerevisiae bub3 mutant strain, at 50.0 µM, active compounds read high.
For the molecule `O=C(O)c1ccccc1[As](=O)(O)O`, the growth inhibition was inactive: -44.6%.

`CC(=O)NC1C(O)OC(CS[As](C)C)C(O)C1O` (centres undefined): the growth inhibition is inactive: 4.75%.

With `CCN(CCCl)Cc1ccc2ccccc2c1`, the growth inhibition is inactive: 1.55%.

`n1[nH]nc2c1c1n[nH]nc1c1n[nH]nc21`: the growth inhibition is inactive: -31.6%.

Take `[N-]=[N+]=NC/C(N)=N/O`: the growth inhibition is inactive: 4.9%.

For `C[N+]1(CCCC[N+]2(C)CCCCCC2)CCCCCC1`, the growth inhibition is inactive: 14.2%.

On to `CCOP(=O)(OCC)OP1OCC(C)(C)CO1`, for which the growth inhibition was inactive: -49.5%.

Take `O=P1(N(CCCl)CCCl)NCCC(C(F)(F)F)O1` (centres undefined): the growth inhibition is inactive: 7.85%.

As for `[N-]=[N+]=NCC(O)CN=[N+]=[N-]` (centres undefined), the growth inhibition was inactive: 4.05%.

For `COP(OC)c1ccc(C)cc1`, the growth inhibition is inactive: 9.4%.

With `NCCc1ccc(N(CCCl)CCCl)cc1`, the growth inhibition was inactive: 7.6%.

`O=C(O)CCc1ccc(Oc2cc([N+](=O)[O-])c([N+](=O)[O-])c([N+](=O)[O-])c2)cc1`: the growth inhibition was inactive: -2.8%.

Take `CN(C)[P+](On1nnc2ccccc21)(N(C)C)N(C)C`: the growth inhibition was inactive: -2.25%.

For the molecule `O=C(N=Nc1ccc([N+](=O)[O-])cc1[N+](=O)[O-])NNc1ccc([N+](=O)[O-])cc1[N+](=O)[O-]`, the growth inhibition is inactive: 42.4%.

As to `N=P(c1ccccc1)(c1ccccc1)c1ccccc1`, the growth inhibition is inactive: -0.85%.

Consider `ClP(Cc1ccccc1)Cc1ccccc1`, for which the growth inhibition was inactive: -13.8%.

In the case of `Cn1c(COC(=O)N(CCCl)CCCl)cnc1S(C)=O` (centres undefined), the growth inhibition is inactive: 14.5%.

For the molecule `CCOC(=O)NC(c1ccccc1[N+](=O)[O-])P(=O)(O)Nc1ncn[nH]1` (centres undefined), the growth inhibition is inactive: -32.3%.

Consider `O=P(OCC(O)CO)(Oc1ccccc1)N(CCCl)CCCl` (centres undefined), for which the growth inhibition was inactive: -0.95%.

With `CCOP1(=O)N=C(NC2=NC(C(F)(F)F)(C(F)(F)F)N=C(C(F)(F)F)O2)N(C)C1(C)C` (centres undefined), the growth inhibition was inactive: -4.2%.

Turning to `[N-]=[N+]=Nc1ccc([As](=O)(O)O)cc1`, the growth inhibition is inactive: -43.8%.

In the case of `C[Si](C)(C)CCCNCCCl`, the growth inhibition was inactive: 41.2%.

As to `CC(COC(=O)c1cc([N+](=O)[O-])cc([N+](=O)[O-])c1)OC(=O)c1cc([N+](=O)[O-])cc([N+](=O)[O-])c1` (centres undefined), the growth inhibition was inactive: 1.7%.

Turning to `O=P(NO)(OCc1ccccc1)N(CCCl)CCCl` (centres undefined), the growth inhibition is inactive: -3.65%.

For `CC1CC[P+](c2ccccc2)(c2ccccc2)Cc2ccccc21` (centres undefined), the growth inhibition is inactive: 30.2%.

In the case of `BrP(c1ccccc1)c1ccccc1`, the growth inhibition is inactive: -9.4%.

In the case of `CC(C)(C)C1CC(C(F)(F)F)(C(F)(F)F)OP(=O)(Cl)O1` (centres undefined), the growth inhibition is inactive: 5.75%.

`Cc1cccc(N[P@]2(Cl)=NP(Cl)(Cl)=N[P@@](Cl)(Nc3cccc(C)c3)=NP(Cl)(Cl)=N2)c1`: the growth inhibition is inactive: -5%.

Consider `C/C(=N/Nc1ccc([N+](=O)[O-])cc1[N+](=O)[O-])c1ccc([N+](=O)[O-])cc1`, for which the growth inhibition was inactive: 38.7%.

With `Nc1ccc(P(=O)(Nc2ccccn2)Nc2ccccn2)cc1`, the growth inhibition is inactive: 15.8%.

Take `CC(/C=C/C(C)=N\Nc1ccc([N+](=O)[O-])cc1[N+](=O)[O-])=N/Nc1ccc([N+](=O)[O-])cc1[N+](=O)[O-]`: the growth inhibition is inactive: -2.3%.

`CN1C(=O)N(C)P(=O)(c2ccccc2)P1c1ccccc1` (centres undefined): the growth inhibition was inactive: 9%.

Take `N/C(=N\N=C\c1ccc([N+](=O)[O-])o1)N[N+](=O)[O-]`: the growth inhibition was inactive: 15%.

Regarding `CCCCCCCCCCCCCCCC(=O)OCC(COP(=O)(Oc1ccccc1)N(CCCl)CCCl)OC(=O)CCCCCCCCCCCCCCC` (centres undefined), the growth inhibition is inactive: -5.75%.

Consider `[N-]=[N+]=NC(N)=O`, for which the growth inhibition is inactive: -1.15%.

For the molecule `CCCCOc1ccc(N(CCCl)CCCl)cc1`, the growth inhibition was inactive: -4.05%.

With `ClC1=C(Cl)C2(Cl)C3C(SC4C3C3(Cl)C(Cl)=C(Cl)C4(Cl)C3(Cl)Cl)C1(Cl)C2(Cl)Cl` (centres undefined), the growth inhibition is inactive: -14.2%.
